For assay [1], the target named is T1, CRF2R (Homo sapiens, UniProt Q13324).
T1 sequence (Q13324 1-411): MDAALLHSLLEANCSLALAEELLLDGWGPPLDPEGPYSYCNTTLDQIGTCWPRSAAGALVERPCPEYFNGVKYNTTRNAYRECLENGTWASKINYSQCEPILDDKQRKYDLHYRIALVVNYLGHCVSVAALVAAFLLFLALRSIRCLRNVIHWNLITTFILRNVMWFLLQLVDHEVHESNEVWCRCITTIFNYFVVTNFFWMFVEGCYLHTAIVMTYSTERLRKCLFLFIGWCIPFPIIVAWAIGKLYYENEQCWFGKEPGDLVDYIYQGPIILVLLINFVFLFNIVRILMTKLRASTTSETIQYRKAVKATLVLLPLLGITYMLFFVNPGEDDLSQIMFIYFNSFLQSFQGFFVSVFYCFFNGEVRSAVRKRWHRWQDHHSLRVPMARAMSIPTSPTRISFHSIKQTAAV
The assay can be described thus: CRF2R agonist activity (EC50 and Emax), called comparative CRF binding. The format is cell-based. The conditions noted are these: CRF2R EC50 (nM), CRF2R. Summed up: (§1)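 Functional activity of peptides at each receptor subtype is determined in whole cells by measuring cAMP induction, either directly in lysates or through reporter expression downstream of a cAMP-responsive element, relative to vehicle.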

The target of assay [2] is T2, CRF1R (Homo sapiens, UniProt P34998).
T2 sequence (P34998 24-415): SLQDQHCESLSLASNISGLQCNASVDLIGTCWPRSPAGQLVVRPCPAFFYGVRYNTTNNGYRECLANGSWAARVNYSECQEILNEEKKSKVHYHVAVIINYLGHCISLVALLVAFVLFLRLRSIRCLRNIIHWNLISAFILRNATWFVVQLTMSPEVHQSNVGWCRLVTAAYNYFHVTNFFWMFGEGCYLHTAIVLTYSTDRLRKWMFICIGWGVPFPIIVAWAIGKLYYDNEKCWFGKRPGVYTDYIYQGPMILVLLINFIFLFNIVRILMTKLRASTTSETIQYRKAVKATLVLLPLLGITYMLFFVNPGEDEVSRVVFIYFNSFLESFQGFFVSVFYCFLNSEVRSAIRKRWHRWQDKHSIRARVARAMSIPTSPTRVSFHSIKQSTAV
The assay can be described thus: CRF1R agonist activity (EC50 and Emax), called comparative CRF binding. The format is cell-based. The note with it: CRF1R EC50 (nM), CRF1R. The gist of the method: as §1

In general, EC50 refers to the concentration that produces a half-maximal response. As to `CC[C@H](C)[C@H](NC(=O)[C@@H](NC(=O)[C@H](CC(=O)O)NC(=O)[C@H](CC(C)C)NC(=O)[C@H](CC(C)C)NC(=O)[C@H](CC(C)C)NC(=O)[C@H](CCCNC(=N)N)NC(=O)[C@H](CC(N)=O)NC(=O)[C@H](CC(N)=O)NC(=O)[C@H](C)NC(=O)[C@H](C)NC(=O)[C@H](CCC(N)=O)NC(=O)[C@H](CCC(N)=O)NC(=O)[C@H](CCCCN)NC(=O)[C@H](CCC(=O)O)NC(=O)[C@H](CCCCN)NC(=O)[C@H](CCC(=O)O)NC(=O)[C@H](CCC(N)=O)NC(=O)[C@H](CCCCN)NC(=O)[C@H](CCC(=O)O)NC(=O)[C@@H](NC(=O)[C@H](CCC(=O)O)NC(=O)[C@@H](NC(=O)[C@H](CCSC)NC(=O)[C@H](CCCCN)NC(=O)[C@H](CCCNC(=N)N)NC(=O)[C@H](CC(C)C)NC(=O)[C@H](CC(C)C)NC(=O)[C@@H](NC(=O)[C@H](CC(C)C)NC(=O)[C@@H]1CCCN1C(=O)[C@H](CC(C)C)NC(=O)[C@H](CC(=O)O)NC(=O)[C@@H](NC(=O)[C@H](CO)NC(=O)[C@@H](NC(=O)[C@@H]1CCCN1C(=O)[C@@H]1CCCN1C(=O)CNC(=O)[C@@H]1CCC(=O)N1)[C@@H](C)CC)[C@@H](C)CC)[C@@H](C)CC)[C@@H](C)CC)[C@@H](C)CC)[C@@H](C)O)C(N)=O` [compound 194], the EC50 is 5 nM in assay [1] and 106 nM in assay [2].
On the same counts, the results for `CC[C@H](C)[C@H](NC(=O)[C@@H](NC(=O)[C@H](CC(=O)O)NC(=O)[C@H](CC(C)C)NC(=O)[C@H](CC(C)C)NC(=O)[C@H](CC(C)C)NC(=O)[C@H](CCCNC(=N)N)NC(=O)[C@H](CC(N)=O)NC(=O)[C@H](CC(N)=O)NC(=O)[C@H](C)NC(=O)[C@H](C)NC(=O)[C@H](CCC(N)=O)NC(=O)[C@H](CCC(N)=O)NC(=O)[C@H](CCCCN)NC(=O)[C@H](CCC(=O)O)NC(=O)[C@H](CCCCN)NC(=O)[C@H](CCC(=O)O)NC(=O)[C@H](CCC(N)=O)NC(=O)[C@H](CCCCN)NC(=O)[C@H](CCC(=O)O)NC(=O)[C@@H](NC(=O)[C@H](CCC(=O)O)NC(=O)[C@@H](NC(=O)[C@H](CCSC)NC(=O)[C@H](CCCCN)NC(=O)[C@H](CCCNC(=N)N)NC(=O)[C@H](CC(C)C)NC(=O)[C@H](CC(C)C)NC(=O)[C@@H](NC(=O)[C@H](Cc1ccc(O)cc1)NC(=O)[C@@H]1CCCN1C(=O)[C@H](CC(C)C)NC(=O)[C@H](CC(=O)O)NC(=O)[C@@H](NC(=O)[C@H](CO)NC(=O)[C@@H](NC(=O)[C@@H]1CCCN1C(=O)[C@@H]1CCCN1C(=O)CNC(=O)[C@@H]1CCC(=O)N1)[C@@H](C)CC)[C@@H](C)CC)[C@@H](C)CC)[C@@H](C)CC)[C@@H](C)CC)[C@@H](C)O)C(N)=O` [compound 204] are 3.6 nM and 32.1 nM.
On the same counts, the results for `CC[C@H](C)[C@H](NC(=O)[C@@H](NC(=O)[C@H](CC(=O)O)NC(=O)[C@H](CC(C)C)NC(=O)[C@H](CC(C)C)NC(=O)[C@H](CC(C)C)NC(=O)[C@H](CCCNC(=N)N)NC(=O)[C@H](CC(N)=O)NC(=O)[C@H](CC(N)=O)NC(=O)[C@H](C)NC(=O)[C@H](C)NC(=O)[C@H](CCC(N)=O)NC(=O)[C@H](CCC(N)=O)NC(=O)[C@H](CCCCN)NC(=O)[C@H](CCC(=O)O)NC(=O)[C@H](CCCCN)NC(=O)[C@H](CCC(=O)O)NC(=O)[C@H](CCC(N)=O)NC(=O)[C@H](CCCCN)NC(=O)[C@H](CCC(=O)O)NC(=O)[C@@H](NC(=O)[C@H](CCC(=O)O)NC(=O)[C@@H](NC(=O)[C@H](CCSC)NC(=O)[C@H](CCCCN)NC(=O)[C@H](CCCNC(=N)N)NC(=O)[C@H](CC(C)C)NC(=O)[C@H](CC(C)C)NC(=O)[C@H](CCC(N)=O)NC(=O)[C@H](C)NC(=O)[C@@H]1CCCN1C(=O)[C@H](CC(C)C)NC(=O)[C@H](CC(=O)O)NC(=O)[C@@H](NC(=O)[C@H](CO)NC(=O)[C@@H](NC(=O)[C@@H]1CCCN1C(=O)[C@@H]1CCCN1C(=O)CNC(=O)[C@@H]1CCC(=O)N1)[C@@H](C)CC)[C@@H](C)CC)[C@@H](C)CC)[C@@H](C)CC)[C@@H](C)O)C(N)=O` [compound 211] are 59.5 nM and 826 nM.
Taken in the same sequence, the figures for `CC[C@H](C)[C@H](NC(=O)[C@@H](NC(=O)[C@H](CC(=O)O)NC(=O)[C@H](CC(C)C)NC(=O)[C@H](CC(C)C)NC(=O)[C@H](CC(C)C)NC(=O)[C@H](CCCNC(=N)N)NC(=O)[C@H](CC(N)=O)NC(=O)[C@H](CC(N)=O)NC(=O)[C@H](C)NC(=O)[C@H](C)NC(=O)[C@H](CCC(N)=O)NC(=O)[C@H](CCC(N)=O)NC(=O)[C@H](CCCCN)NC(=O)[C@H](CCC(=O)O)NC(=O)[C@H](CCCCN)NC(=O)[C@H](CCC(=O)O)NC(=O)[C@H](CCC(N)=O)NC(=O)[C@H](CCCCN)NC(=O)[C@H](CCC(=O)O)NC(=O)[C@@H](NC(=O)[C@H](CCC(=O)O)NC(=O)[C@@H](NC(=O)[C@H](CCSC)NC(=O)[C@H](CCCCN)NC(=O)[C@H](CCCNC(=N)N)NC(=O)[C@H](CC(C)C)NC(=O)[C@H](CC(C)C)NC(=O)[C@H](CCC(N)=O)NC(=O)[C@H](Cc1c[nH]cn1)NC(=O)[C@@H]1CCCN1C(=O)[C@H](CC(C)C)NC(=O)[C@H](CC(=O)O)NC(=O)[C@@H](NC(=O)[C@H](CO)NC(=O)[C@@H](NC(=O)[C@@H]1CCCN1C(=O)[C@@H]1CCCN1C(=O)CNC(=O)[C@@H]1CCC(=O)N1)[C@@H](C)CC)[C@@H](C)CC)[C@@H](C)CC)[C@@H](C)CC)[C@@H](C)O)C(N)=O` [compound 212] were 21.3 nM and 445 nM.
For the molecule `CC[C@H](C)[C@H](NC(=O)[C@@H](NC(=O)[C@H](CC(=O)O)NC(=O)[C@H](CC(C)C)NC(=O)[C@H](CC(C)C)NC(=O)[C@H](CC(C)C)NC(=O)[C@H](CCCNC(=N)N)NC(=O)[C@H](CC(N)=O)NC(=O)[C@H](CC(N)=O)NC(=O)[C@H](C)NC(=O)[C@H](C)NC(=O)[C@H](CCC(N)=O)NC(=O)[C@H](CCC(N)=O)NC(=O)[C@H](CCCCN)NC(=O)[C@H](CCC(=O)O)NC(=O)[C@H](CCCCN)NC(=O)[C@H](CCC(=O)O)NC(=O)[C@H](CCC(N)=O)NC(=O)[C@H](CCCCN)NC(=O)[C@H](CCC(=O)O)NC(=O)[C@@H](NC(=O)[C@H](CCC(=O)O)NC(=O)[C@@H](NC(=O)[C@H](CCSC)NC(=O)[C@H](CCCCN)NC(=O)[C@H](CCCNC(=N)N)NC(=O)[C@H](CC(C)C)NC(=O)[C@H](CC(C)C)NC(=O)[C@H](Cc1c[nH]c2ccccc12)NC(=O)[C@H](Cc1c[nH]c2ccccc12)NC(=O)[C@@H]1CCCN1C(=O)[C@H](CC(C)C)NC(=O)[C@H](CC(=O)O)NC(=O)[C@@H](NC(=O)[C@H](CO)NC(=O)[C@@H](NC(=O)[C@@H]1CCCN1C(=O)[C@@H]1CCCN1C(=O)CNC(=O)[C@@H]1CCC(=O)N1)[C@@H](C)CC)[C@@H](C)CC)[C@@H](C)CC)[C@@H](C)CC)[C@@H](C)O)C(N)=O` [compound 216], the results for the half-maximal effective concentration (EC50) in assay [1] and in assay [2] were 9.9 nM and 49.8 nM, respectively.
Taken in the same sequence, the figures for `CC[C@H](C)[C@H](NC(=O)[C@@H](NC(=O)[C@H](CC(=O)O)NC(=O)[C@H](CC(C)C)NC(=O)[C@H](CC(C)C)NC(=O)[C@H](CC(C)C)NC(=O)[C@H](CCCNC(=N)N)NC(=O)[C@H](CC(N)=O)NC(=O)[C@H](CC(N)=O)NC(=O)[C@H](C)NC(=O)[C@H](C)NC(=O)[C@H](CCC(N)=O)NC(=O)[C@H](CCC(N)=O)NC(=O)[C@H](CCCCN)NC(=O)[C@H](CCC(=O)O)NC(=O)[C@H](CCCCN)NC(=O)[C@H](CCC(=O)O)NC(=O)[C@H](CCC(N)=O)NC(=O)[C@H](CCCCN)NC(=O)[C@H](CCC(=O)O)NC(=O)[C@@H](NC(=O)[C@H](CCC(=O)O)NC(=O)[C@@H](NC(=O)[C@H](CCSC)NC(=O)[C@H](CCCCN)NC(=O)[C@H](CCCNC(=N)N)NC(=O)[C@H](CC(C)C)NC(=O)[C@H](CC(C)C)NC(=O)[C@H](Cc1c[nH]c2ccccc12)NC(=O)[C@H](Cc1ccccc1)NC(=O)[C@@H]1CCCN1C(=O)[C@H](CC(C)C)NC(=O)[C@H](CC(=O)O)NC(=O)[C@@H](NC(=O)[C@H](CO)NC(=O)[C@@H](NC(=O)[C@@H]1CCCN1C(=O)[C@@H]1CCCN1C(=O)CNC(=O)[C@@H]1CCC(=O)N1)[C@@H](C)CC)[C@@H](C)CC)[C@@H](C)CC)[C@@H](C)CC)[C@@H](C)O)C(N)=O` [compound 217] were 4.7 nM and 94.7 nM.

Source of the values: US7632933B2, “Corticotropin releasing factor 2 receptor agonists” (priority 2002, dated 2009).
